The EC50 is the concentration needed to bring the measured effect to its halfway point.

Drawing on BindingDB's records for doi:10.1021/jm00092a019 (Bristol-Myers Squibb Pharmaceutical Research Institute, 1992), this text covers EC50 for one compound.

The assay is described as follows: Inhibition of platelet aggregation using Adenosine diphosphate (ADP) as activating agent in rabbit platelet rich plasma (PRP).

Compound `O=c1[nH]c2cc3cc(OCCO)ccc3nc2[nH]1` returned an EC50 of 20 nM.
